Measured values from ChEMBL document CHEMBL2074145, “Active transport of fluorescent P-glycoprotein substrates: evaluation as markers and interaction with inhibitors” (Biochem Biophys Res Commun, 2001).

Sequences of proteins named here, by UniProt entry; tags and fusion partners are left off.
UniProt P08183, whole entry: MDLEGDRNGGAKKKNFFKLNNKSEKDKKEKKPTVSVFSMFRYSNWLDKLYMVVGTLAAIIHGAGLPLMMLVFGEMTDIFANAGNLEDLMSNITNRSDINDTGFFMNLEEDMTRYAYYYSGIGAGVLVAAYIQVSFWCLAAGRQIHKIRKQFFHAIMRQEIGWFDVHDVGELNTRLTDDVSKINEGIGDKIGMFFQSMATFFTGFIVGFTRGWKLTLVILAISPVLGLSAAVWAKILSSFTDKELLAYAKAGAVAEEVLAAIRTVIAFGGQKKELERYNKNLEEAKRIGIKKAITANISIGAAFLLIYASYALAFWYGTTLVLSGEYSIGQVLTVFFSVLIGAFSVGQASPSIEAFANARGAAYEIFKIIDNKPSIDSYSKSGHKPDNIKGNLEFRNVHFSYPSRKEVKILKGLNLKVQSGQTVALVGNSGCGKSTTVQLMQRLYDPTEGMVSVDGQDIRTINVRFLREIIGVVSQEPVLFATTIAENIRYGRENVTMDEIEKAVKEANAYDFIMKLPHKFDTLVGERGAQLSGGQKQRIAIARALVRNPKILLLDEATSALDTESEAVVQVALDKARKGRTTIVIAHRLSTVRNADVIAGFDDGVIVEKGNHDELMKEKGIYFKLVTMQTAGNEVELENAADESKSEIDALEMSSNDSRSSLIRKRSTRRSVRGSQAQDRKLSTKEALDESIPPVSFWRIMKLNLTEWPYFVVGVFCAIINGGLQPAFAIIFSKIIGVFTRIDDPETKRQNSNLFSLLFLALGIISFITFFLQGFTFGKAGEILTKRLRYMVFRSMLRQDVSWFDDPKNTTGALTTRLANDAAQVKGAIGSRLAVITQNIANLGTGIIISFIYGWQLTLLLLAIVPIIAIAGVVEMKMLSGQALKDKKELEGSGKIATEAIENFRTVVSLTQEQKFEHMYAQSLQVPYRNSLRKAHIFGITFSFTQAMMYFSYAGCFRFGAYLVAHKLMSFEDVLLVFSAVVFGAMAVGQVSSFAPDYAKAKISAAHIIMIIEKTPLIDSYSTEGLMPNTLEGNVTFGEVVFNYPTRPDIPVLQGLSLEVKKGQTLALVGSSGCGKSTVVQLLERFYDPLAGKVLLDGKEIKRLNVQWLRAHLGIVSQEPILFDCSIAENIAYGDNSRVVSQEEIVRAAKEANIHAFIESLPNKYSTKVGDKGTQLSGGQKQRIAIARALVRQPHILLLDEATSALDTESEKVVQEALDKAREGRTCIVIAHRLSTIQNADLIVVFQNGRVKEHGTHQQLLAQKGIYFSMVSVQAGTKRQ

Tests used:
[1] = molecular target: T1, ATP-dependent translocase ABCB1 (Homo sapiens, UniProt P08183)
[2] = molecular target: T1, ATP-dependent translocase ABCB1; remark: listed apart in the source
[3] = molecular target: T1, ATP-dependent translocase ABCB1; remark: listed apart in the source
[4] = molecular target: T1, ATP-dependent translocase ABCB1; remark: listed apart in the source
[5] = molecular target: T1, ATP-dependent translocase ABCB1; remark: listed apart in the source
[6] = molecular target: T1, ATP-dependent translocase ABCB1; remark: listed apart in the source
[7] = molecular target: T1, ATP-dependent translocase ABCB1; remark: listed apart in the source

Compound: COC(=O)C1=C(C)NC(C)=C(C(=O)OCCN(C)Cc2ccccc2)C1c1cccc([N+](=O)[O-])c1 (configuration not stated) [NICARDIPINE]
- IC50 [1]: 7.1 µM
- IC50 [2]: 14.6 µM
- IC50 [3]: 6.6 µM
- IC50 [4]: 11.7 µM
- IC50 [5]: 3.2 µM
- IC50 [6]: 5.6 µM
- IC50 [7]: > 25.8 µM
